The subject of experiment [1] is RAW264.7. As to the kind of experiment: Inhibition of MAPK/NFkappaB in ICR mouse RAW264.7 cells assessed as reduction in LPS-induced IL6 production pretreated for 0.5 hrs followed by LPS challenge and measured after 24 hrs by ELISA. It is filed as cell-based. In general terms: In an ELISA, binding on a coated surface is turned into a signal by an enzyme label.
In experiment [2] the test system is RAW264.7. As to the kind of experiment: Inhibition of MAPK/NFkappaB in ICR mouse RAW264.7 cells assessed as reduction in LPS-induced TNFalpha production pretreated for 0.5 hrs followed by LPS challenge and measured after 24 hrs by ELISA. Format: cell-based.

With `COc1cc(/C=C/C(=O)N2CCC/C(=C\c3cc(OC)c(OC)c(OC)c3)C2=O)ccc1OC(C)=O`, the inhibition result in experiment [1] and in experiment [2] was “Dose-dependent effect” in each case.
As to `COc1cc(/C=C/C(=O)N2CCC/C(=C\c3cc(OC)c(OC)c(OC)c3)C2=O)ccc1O`, the inhibition result in experiment [1] and in experiment [2] was “Dose-dependent effect” throughout.

The record behind these values is ChEMBL document CHEMBL4387702, “Design and synthesis novel di-carbonyl analogs of curcumin (DACs) act as potent anti-inflammatory agents against LPS-induced acute lung injury (ALI)” (Eur J Med Chem, 2019).
